{"source": "patent US10251838B2", "about": "“Stereospecific lipids for locoregional therapy with long-term circulating stimuli-sensitive nanocarrier systems” (THERMOSOME GmbH, priority 2013, dated 2019)", "origin": "cited, not measured here", "conditions": "dog model, cited from earlier work", "note": "Read-outs that look alike come from different tables or passages of the source."}
{"smiles": "CO[C@@]12[C@H](COC(N)=O)C3=C(C(=O)C(C)=C(N)C3=O)N1C[C@@H]1N[C@@H]12", "note": "[mitomycin C]", "values": [{"measurement": "cases with sufficiently high (cytotoxic) concentrations", "setting": "lamina propria", "value": 20, "unit": "%"}, {"measurement": "cases with sufficiently high (cytotoxic) concentrations", "setting": "tunica muscularis", "value": "less than 20%"}]}
